Values quoted from earlier work, collected in patent publication US7309497B2, “Injectable pharmaceutical composition for systematic administration of pharmacologically active ingredients” (Schwarz Pharma AG, priority 2000, dated 2007).

Conditions: injected in an aqueous solution; cited from earlier work

## insulin
  half-time value: about 6 minutes
